Assay: Turbidity assay (in vitro solubility assay), 7KC suspension
Assay type: physicochemical
Details: 7KC vs cholesterol
Description: Greater affinity for one compound than another, e.g., greater affinity for 7KC than cholesterol, may be determined using a “turbidity test” performed on an aqueous suspension containing 3% ethanol, 300uM sterol, in PBS and 1 mM of the cyclodextrin to be tested. This single concentration of cyclodextrin is used in order to standardize the test results. To perform the test, the samples are incubated for 30 mins at 37 C, and then absorbance at 350 nm is measured, e.g., using a spectrophotometer plate reader. Relative turbidity is determined by dividing the measured turbidity in the presence of the cyclodextrin to the baseline turbidity without the cyclodextrin. A given cyclodextrin has greater affinity for 7KC than cholesterol if the relative turbidity of the 7KC suspension is lower than the relative turbidity of the cholesterol solution.

Substance: Quaternary Ammonium (βCD-(TRIAZOLE)1-βCD) Dimer [QA CD-Triazole-CD DS 2]
- specificity for 7KC over cholesterol (turbidity): specificity for 7KC over cholesterol

Reference: patent US11279774B2, “Cyclodextrin dimers, compositions thereof, and uses thereof” (UNDERDOG PHARMACEUTICALS, INC., priority 2019, dated 2022)
